Results published in patent US10287301B2 (Achillion Pharmaceuticals, Inc., priority 2015, dated 2019).
Read-outs that look alike come from different tables or passages of the source.

Chains of the proteins cited; added tags and fusions are not shown. Residues count along the entry.
UniProt P00746, 26-253: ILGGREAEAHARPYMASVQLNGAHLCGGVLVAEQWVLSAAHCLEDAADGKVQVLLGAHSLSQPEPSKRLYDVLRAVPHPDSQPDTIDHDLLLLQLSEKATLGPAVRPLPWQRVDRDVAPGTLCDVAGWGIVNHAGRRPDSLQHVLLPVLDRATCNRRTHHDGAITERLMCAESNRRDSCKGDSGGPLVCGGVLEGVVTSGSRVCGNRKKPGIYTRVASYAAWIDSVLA

Biological target: Human Factor D (Homo sapiens (Human), UniProt P00746)
Experiment: Human Factor D Assay
Format: biochemical
Protocol: Human Factor D (purified from human serum, Complement Technology, Inc.) at 80 nM final concentration was incubated with test compound at various concentrations for 5 minutes at room temperature in 50 mM Tris, 1M NaCl, pH 7.5. A synthetic substrate Z-L-Lys-SBzl and DTNB (Ellman's reagent) are added to final concentrations of 100 μM each. […] IC50 values are calculated by nonlinear regression of complement Factor D reaction rates as a function of test compound concentration.

[1] = Table 3, Human Factor D 80 nM, substrate Z-L-Lys-SBzl, read-out: IC50 (Stars)

Row | Molecule | IC50 (read-out: IC50) [µM] | IC50 [1] [µM]
1 | (2S,4R)-1-(2-(3-Acetyl-5-(2-(methoxymethyl)pyrimidin-5-yl)-1H-indazol-1-yl)acetyl)-N-(6-bromopyridin-2-yl)-4-fluoropyrrolidine-2-carboxamide [Compound 737] | < 1 | –
2 | CC(=O)c1nn(CC(=O)N2C[C@H]3C[C@H]3[C@H]2C(=O)Nc2cccc(Br)n2)c2ccc(-c3cnc(C)nc3)cc12 [Compound 413, (1R,2S,5S)-3-(2-(3-Acetyl-5-(2-methylpyrimidin-5-yl)-1H-indazol-1-yl)acetyl)-N-(6-bromopyridin-2-yl)-3-azabicyclo[3.1.0]hexane-2-carboxamide] | – | < 1
3 | CC(=O)c1nn(CC(=O)N2C[C@@H]3C[C@@H]3[C@H]2C(=O)Nc2cccc(Br)n2)c2ccc(-c3cnc(C)nc3)cc12 [Compound 371, (1S,2S,5R)-3-(2-(3-acetyl-5-(2-methylpyrimidin-5-yl)-1H-indazol-1-yl)acetyl)-N-(6-bromopyridin-2-yl)-3-azabicyclo[3.1.0] hexane-2-carboxamide] | – | < 1
4 | (2S,4R)-1-(2-(3-Acetyl-5-(2-methyl-[1,2,4]triazolo[1,5-a]pyridin-6-yl)-1H-indazol-1-yl)acetyl)-N-(6-bromopyridin-2-yl)-4-fluoropyrrolidine-2-carboxamide [Compound 661] | < 1 | –
5 | CC(=O)c1nn(CC(=O)N2CC3CC3C2C(=O)Nc2cccc(Br)n2)c2ccc(-c3cnc(C)nc3)cc12 (centres unmarked) [Compound 369, 3-(2-(3-acetyl-5-(2-methylpyrimidin-5-yl)-1H-indazol-1-yl)acetyl)-N-(6-bromopyridin-2-yl)-3-azabicyclo[3.1.0] hexane-2-carboxamide] | – | < 1
